Nrf2 inh = blocks Nrf2 signaling | A549 ARE-Fluc reporter, luciferase luminescence, 18-24 h | Potency, µM (highest dose often 46 µM), hits mostly inhibitors | actives 2.1% (n = 360,000) | AID 504444; also: nearly all actives have a fitted effect of over 60% in size
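Quantitative HTS in A549 cells stably bearing an antioxidant response element-firefly luciferase construct. Inhibition of Nrf2-driven transcription was scored by luminescence after 18-24 h of compound exposure at 37 °C.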
miR-21 reporter = raises the signal of a miR-21 reporter; AID 2288; 340,000 tested, under 10 active; Potency, µM (doses to about 38.3 µM); HeLa miR-21 FLuc reporter, luciferase, 48 h; active = well fitted rising curve with a large enough effect; inconclusive = small, poorly fitted or top-dose-only effect; inactive = no such curve, though single readings can be large or run the other way;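 note: miR-21 action dims this reporter so a rising signal means less miR-21 action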
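Luminescence from a firefly luciferase reporter carrying a miR-21 binding site downstream, stably expressed under a CMV promoter in HeLa cells that make miR-21 endogenously, reports miRNA modulation after 48 h compound exposure up to approximately 40uM final.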
A549 tox = kills or reduces viability of A549 cells in Nrf2 counter-screen | A549 ARE-Fluc cells, CellTiter-Fluor viability, 18-24 h | Potency, µM (series often up to 46 µM), hits mostly inhibitors | actives 0.16% (n = 390,000) | AID 504648
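A549 ARE-Fluc cells in 5% FBS OPTI-MEM, 5000 cells/well, rested 2 h then exposed to compounds in concentration-response for 18-24 h at 37 °C. Viability by CellTiter-Fluor fluorescence (Ex 405/Em 525) after 30 min; luciferase luminescence (BugLite, 15 min, RT) read afterwards.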
Nrf2 ARE act = activates Nrf2 signaling. AID 624171. AREc32 ARE-luciferase reporter (MCF7-derived line), luminescence, 24 h. Potency, µM (highest dose often 46.1 µM), actives largely listed as activators. actives 0.31% (n = 410,000); also: nearly all actives have a fitted effect of over 65% in size
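AREc32 cells carrying an ARE-driven firefly luciferase, 1000 cells/well in OPTI-MEM with 5% FBS, dosed after overnight attachment and incubated 24 hr at 37 deg C. Steady-Glo luminescence read after 30 min at RT.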
IL2 activator = IL-2 activation; IL-2 activation reporter assay, cell-based qHTS; stimulated with anti-CD3/CD4/CD28 beads; in transgenic mouse T cells; activation, % (series mostly up to about 46 µM); actives 0.065% (n = 360,000); in the data active = activation above about 50%; inconclusive = mostly about 30% to 49%
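Readout is EGFP and DsRed signal by fluorescent plate cytometry after 18 h at 37 degrees C. Transgenic mouse T cells (750/well) received compound for 60 min before bead stimulation (anti-CD3, anti-CD4, anti-CD28); memory T cells served as non-tolerant control.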
ClpP mod = qHTS Assay for Activators of ClpP; ATP-dependent Clp protease proteolytic subunit (Bacillus subtilis (strain 168)), P80244; Potency, µM (highest dose often 57.5 µM); actives 1.9% (n = 340,000); purified B. subtilis ClpP, FRET peptide cleavage, 20 min; active = well fitted falling curve with a large enough effect; inconclusive = small, poorly fitted or top-dose-only effect; inactive = no such curve, though single readings can be large or run the other way; also: the source files actives as falling curves though it sought activators and does not explain the sign; nearly all actives have a fitted effect of over 65% in size
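Buffer: 100 mM Tris/HCl pH8, 100 mM KCl, 0.05% low protease BSA, 2.5% glycerol, 0.01% Tween-20. ClpP 10 microg/mL final; 20 min RT; delta FRET normalized to ADEP and DMSO controls.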
A number is an active result; i = inactive; ? = inconclusive; nt = no result given; ! = repeats disagree; [ ] = dose if it differs, or a comment. Only some compounds are listed: those with a hit (about 3.7% of all), similar ones and a draw of the others. Unless noted, calls follow the shape of the dose curve; as a rule, active = well fitted curve in the direction sought with a large enough effect; inconclusive = small, poorly fitted or top-dose-only effect, or another doubt; inactive = no such curve, though single readings can be large; an effect the other way counts as inactive or inconclusive.

By UniProt entry, the sequences of proteins in these tests, tags left out.
ATP-dependent Clp protease proteolytic subunit (Bacillus subtilis (strain 168)), P80244, UniProt P80244, whole entry, looked up: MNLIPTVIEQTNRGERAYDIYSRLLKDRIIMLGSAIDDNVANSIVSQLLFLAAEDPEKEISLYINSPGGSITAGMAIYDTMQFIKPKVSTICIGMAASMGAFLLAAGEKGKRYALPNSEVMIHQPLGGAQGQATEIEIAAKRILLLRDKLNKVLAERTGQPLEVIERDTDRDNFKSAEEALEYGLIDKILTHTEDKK

SMILES | Nrf2 inh | miR-21 reporter | A549 tox | Nrf2 ARE act | IL2 activator | ClpP mod
CC(CC(=O)Nc1cccc(S(=O)(=O)N2CCCCC2)c1)c1ccccc1 (stereo not drawn) | 13µM | nt | ? | i | i | i
Cc1ccc(CNC(=O)C(C)n2ccc3cc(S(=O)(=O)N4CCCC4)ccc32)cc1 (stereo not drawn) | ? | i | i | i | nt | i
O=C(CSc1ccccc1)Nc1cccc(S(=O)(=O)N2CCCC2)c1 | i | i | i | i | i | i
CC(=O)c1ccc(OCC(=O)Nc2cccc(S(=O)(=O)N3CCCC3)c2)cc1 | 16µM | nt | i | i | i | i
CC(C(=O)NCc1ccc(F)cc1)n1ccc2cc(S(=O)(=O)N3CCCC3)ccc21 (stereo not drawn) | 21µM | i | i | i | i | i
CCCCN(C)C(=O)CSc1nc2ccccc2nc1Cc1ccc(C)cc1 | nt | i | i | i | nt | i
Cn1nc(C(=O)NCc2ccccn2)c2ccccc2c1=O | 5.8µM | i | i | i | i | i
CCOc1ccc(-n2nc(CO)c(C(=O)NCc3ccccn3)n2)cc1 | i | i | i | i | nt | 11µM
CCc1ccc(-n2nc(CO)c(C(=O)NCc3ccccn3)n2)cc1 | ? | i | i | i | nt | 14µM
Cc1ccc(COC(=O)c2nn(C)c(=O)c3ccccc23)cc1 | 23µM | i | i | i | i | nt
Cn1nc(C(=O)NCc2ccccc2)c2ccccc2c1=O | i | i | i | i | i | i
CC(C)c1nn2c(=O)cc(COC(=O)c3cccc(NC(=O)c4cccs4)c3)nc2s1 | nt | i | i | i | nt | i
O=C(OCC#CCSc1nnc(-c2c[nH]c3ccccc23)o1)c1ccc(F)cc1 | i | nt | i | nt | nt | nt
NC(N)=Nc1ccc(/C=C2\C=Cc3ccccc32)cc1 | nt | nt | nt | nt | nt | i
CCc1nn(CC(=O)NCc2ccco2)c(=O)c2cc3c(OC)cccc3n12 | i | i | i | i | nt | i
CS(=O)(=O)N(CC(=O)Nc1ccc(Br)cc1)c1ccccc1Br | nt | i | i | i | nt | i
O=C(/C=C/c1ccc(-c2ccccc2[N+](=O)[O-])o1)c1ccc(Br)cc1 | i | i | i | 2.5µM | i | i
Nc1ncccc1OCc1cccc(C(F)(F)F)c1 | 16µM | i | ? | i | i | nt
COc1ccc(CCNC(=O)c2cc(-c3ccc(C)cc3)nc3n[nH]c(-c4ccccc4)c23)cc1OC | nt | i | i | i | nt | 13µM
CCCCOc1ccc(CC(=O)N(C)O)cc1 | nt | nt | nt | nt | nt | i
COc1cc(/C=N\NC(=O)c2cccnc2)ccc1OC(=O)c1ccccc1Cl | 15µM | i | i | i | i | i
COc1cc(/C=N/NC(=O)c2cccnc2)ccc1OC(=O)c1ccco1 | i | i | i[1.84 µM] | i | i | i
Cc1ccc(O)c(NC(=O)c2noc3c2CCCCC3)c1 | i | i | i | ? | i | i
Cc1ccc(O)c(NC(=O)c2noc3c2CCCC3)c1 | i | i | i | 7.9µM | nt | i
Cc1c(P(=S)(c2ccccc2)c2ccccc2)[n+]2ccccc2n1Cc1ccccc1 | i | nt | i | nt | nt | nt
SMILES | Nrf2 inh | miR-21 reporter | A549 tox | Nrf2 ARE act | IL2 activator | ClpP mod
CCOC(=O)CN(c1ccccn1)S(=O)(=O)c1ccccc1 | i | i | i | i | i | 32µM
COc1ccc(S(=O)(=O)N(CC(=O)O)c2ccccn2)cc1 | i | i | i | i | i | i
CCc1cccc(NC(=O)CNS(=O)(=O)c2ccc3nc(C)sc3c2)c1 | i | i | i | i | nt | i
COCCNC(=S)N/N=C(\C)c1ccccc1O | i | i | i | i | i | ?
COCCNC(=S)N/N=C(\C)c1ccccc1OC | i | i | i | i | i | 2.8µM
O=C(Cc1ccccc1)NCC(=O)OCC(=O)c1ccc2ccccc2c1 | i | nt | i | nt | nt | 28µM
CC(C)c1ccc(-c2nnc3n(CCc4ccccc4)c(=O)c4ccccc4n23)cc1 | i | i | i | i | nt | i
CN1CCC2(CC1)C1CN(C)CC=C1C(C#N)=C(N)C2(C#N)C#N (stereo not drawn) | i | i | 16µM! | i | i | i
CN1CC=C2C(C#N)=C(N)C(C#N)(C#N)[C@H](c3cccs3)[C@H]2C1 | i | i | i | i | i | i
CC(=O)O/N=C(/C)c1ncc(C(F)(F)F)cc1N1CCOCC1 | i | i | i | i | i | 14µM
COc1cc(-c2nc3ccccc3s2)ccc1O | 18µM | i | i | 6.3µM | i | 8.9µM
COc1ccc(-c2nc3ccccc3s2)cc1O | ? | i | i | ? | i | i
COC(=O)[C@@H]1[C@H]2SC(C)(C)[C@H](C(=O)OC)N2C(=O)N1Cc1cc2ccccc2n1S(=O)(=O)c1ccccc1 | nt | nt | nt | nt | nt | i
CCOC(=O)c1noc2ncn(Cc3ccc([N+](=O)[O-])cc3)c(=O)c12 | nt | i | i | i | nt | i
Cc1cccc(N(C)S(=O)(=O)c2nnc(NC(=O)c3ccco3)s2)c1 | i | i | i | i | i | i
CN(c1ccccc1)S(=O)(=O)c1nnc(NC(=O)c2ccco2)s1 | 7.3µM! | i | i | i | i | i
CCC(CC)C(=O)Nc1nnc(S(=O)(=O)N(C)c2cc(C)cc(C)c2)s1 | 21µM | i | i | i | nt | i
COc1cc(/C=C(/C#N)c2ccc(F)cc2)ccc1Oc1ccc([N+](=O)[O-])cn1 | ? | i | i | i | i | 32µM
Cc1ccc(C)c(NC(=O)c2cnn(-c3cccc(F)c3)c2C2CCN(C(=O)OC(C)(C)C)CC2)c1 | ? | ? | i | i | nt | i
O=C1C(=Cc2ccco2)CCC1=Cc1ccco1 | i | nt | ? | i | i | i
O=C1C(=Cc2ccco2)CCCC1=Cc1ccco1 | i | nt | i | 3.2µM | i | nt
CC(C)OC(=O)c1cc2c(ccn2C)n1CC(=O)N(Cc1ccccc1)c1ccc(F)cc1 | ? | i | i | i | i | 32µM
CCOC(=O)c1cc2c(ccn2C)n1CC(=O)N(Cc1ccccc1)c1ccc(F)cc1 | i | i | i | i | i | i
O=C(Nc1ccc(F)cc1)C1CCN(c2nc3ccccc3n3cccc23)CC1 | i | i | i | i | nt | i
COc1cccc(CNC(=O)C2CCCN(c3nc4ccccc4n4cccc34)C2)c1 (stereo not drawn) | i | i | i | i | nt | i
Cc1ccc(CNC(=O)C2CCCN(c3nc4ccccc4n4cccc34)C2)cc1 (stereo not drawn) | i | i | i | i | nt | 22µM
COc1ccccc1CNC(=O)C1CCCN(c2nc3ccccc3n3cccc23)C1 (stereo not drawn) | i | i | i | i | nt | 13µM
O=C(Nc1ccc(Cl)cc1)C1CCN(c2nc3ccccc3n3cccc23)CC1 | i | i | i | i | nt | 28µM
Nc1ncc(S(=O)(=O)NCc2ccc(Cl)cc2)cn1 | nt | i | i | i | nt | i
